## Measured affinities in a library of Ab-14 heavy chain variants

Antigen: PDVDLGDISGINAS, a 14-residue peptide of the SARS-CoV-2 spike HR2 region.

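Phage display of a naive human antibody library on the peptide gave the parent. Variants in AAYL49 differ from the parent at up to three CDR positions; double and triple changes were sampled at random. In AlphaSeq, yeast of one mating type display the scFv and yeast of the other type display the target. The frequency of each diploid, read from paired DNA barcodes, reflects how well the two displayed proteins bind. Each replicate has its own calibration line, from reference interactions of the BCL2 family. Mating was done three times.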

Each scFv is VH, a (GGGGS)3 linker, VL, as in the parent Ab-14, and differs from it in the CDRs of the heavy chain only.
VH: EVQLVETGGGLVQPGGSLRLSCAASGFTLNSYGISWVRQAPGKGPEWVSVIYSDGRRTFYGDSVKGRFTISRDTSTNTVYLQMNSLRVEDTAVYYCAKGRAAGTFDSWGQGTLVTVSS
VL: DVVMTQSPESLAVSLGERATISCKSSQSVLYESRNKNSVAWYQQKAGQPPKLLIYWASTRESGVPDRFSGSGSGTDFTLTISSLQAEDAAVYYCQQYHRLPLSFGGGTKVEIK

Each variant is given by its three heavy chain CDRs, as the data file delimits them; those of the parent are GFTLNSYGIS, VIYSDGRRTFYGDSVK, GRAAGTFDS.
Kd is apparent (estimated from mating counts) and averaged on the log scale over replicates with a signal. Smaller is tighter.
Where no diploid with the target was found in any replicate, the entry reads "no signal": below detection, most likely a poor binder, though not proof of it.
Three control strains display no target. For library AAYL49, 15% of the pairings with them gave a signal, with a median of 11 µM and one signal in twenty below 680 nM, so weak values seen in few replicates may be background.

CDR-H1,CDR-H2,CDR-H3,apparent Kd,seen in
GFTLNSYGIS,VIKSDGRRTFEGDSVK,GHAAGTFDS,no signal,0 of 3
GFTLNSYGIS,VIYSHGRRTFYNDSVK,GRAAGTFFS,no signal,0 of 3
GFTLNSYGIS,VPYSDGRRTFLQDSVK,GRAAGTFDS,no signal,0 of 3
GFTLNSYCIS,VIYSDGRRTFYYDSVA,GRAAGTFDS,no signal,0 of 3
GFTLNSYGIS,VIYSDGRRKFYGDSVK,GRAYGTFDS,940 µM,1 of 3
GFTLNSYGIS,VEYSDGRRTFYGDSVK,GRAAWTFDF,4.2 µM,2 of 3
FFTLNSYGIS,VIYSDGRWTFYGDSVK,GRAAGTFDN,no signal,0 of 3
GFTLNSYGIS,VIYSDGRRTFFGVSVK,GRAAGTFDS,no signal,0 of 3
HFTLNSYGIS,VIYSDGRITFYGDSVK,GRAAGLFDS,7.4 µM,2 of 3
CFTLNSYGIS,VIYSDGRRTFYGDSVR,GRAAGVFDS,41 µM,1 of 3
GFTLNSYGIS,VILSDGRRTFYGDSVK,GRAAGTFMS,24 µM,1 of 3
GFTLNSYGIS,FIYSPGRRTFHGDSVK,GRAAGTFDS,no signal,0 of 3
GFTLNSYGIS,VKYSDARRIFYGDSVK,GRAAGTFDS,1.3 µM,1 of 3
NFTLNSYGIS,VIYSDGRRTFYGDSVK,QRAAGEFDS,no signal,0 of 3
GFTLNSYGIS,VIYSDPRRTFYPDSVK,GRAAGRFDS,no signal,0 of 3
GFTLNSYGIS,VIYSTGRRTKYGDSVK,GRAAGTFMS,no signal,0 of 3
GFTLNSYGIS,VIYSDGRRTFYGDSVK,CSAAGTFDS,380 µM,1 of 3
GFTLNSYGIS,VIYSVGRRTAYGDSIK,GRAAGTFDS,no signal,0 of 3
GFTLNSYGIS,VIYNDGRRTFYDDSVK,GRAASTFDS,no signal,0 of 3
GFTLYSYGIS,VIYSDGVRTFYGDSVK,GRAAGRFDS,110 nM,3 of 3
GFTLNSYGIS,VIYSDGRRRFYGCSVK,GRAAGTFFS,no signal,0 of 3
GFGLNSYGIS,VIYNDGRRTFYGMSVK,GRAAGTFDS,3.1 µM,2 of 3
GFTLNSYNIS,SIYSDGRRTFYGDSVK,GRAAGTQDS,22 µM,1 of 3
GFTLNSYGIS,VIRSDGTRTFYGDSYK,GRAAGTFDS,12 µM,2 of 3
GFTLMSYGIS,VIYSDGRRTFYGDSDK,GKAAGTFDS,5.3 µM,1 of 3
GFTLNSYGIS,VIYSDGRRTQRGDDVK,GRAAGTFDS,2.0 µM,2 of 3
GFTLNSYFIS,VIYSDGRRTFYGLSVK,LRAAGTFDS,no signal,0 of 3
EFTLNSYGIS,VIYSDGRFTFYGISVK,GRAAGTFDS,no signal,0 of 3
GFTMNQYGIS,VIYSDGRRTFYGDSVK,GRAAGTFDS,38 nM,3 of 3
GFILNLYGIS,VIYSDGRRTFYGDSVK,GRAAGTFDR,760 nM,3 of 3
GFTLNSYGIS,VIYSDGRRTFYGDRVK,GRAAITEDS,24 nM,3 of 3
GFTLNSYNIS,VIYSDGRRTFYGDSVK,GYAAITFDS,3.8 µM,1 of 3
VFTLNSYGIS,VIYSDGSRTFYGISVK,GRAAGTFDS,110 µM,1 of 3
GFTLNSYGIS,VIYSDGRNTFYGDSVK,GQAAGTFDS,790 nM,2 of 3
GFTLNSYGIS,VIYSDGMRTVYGDSVK,SRAAGTFDS,no signal,0 of 3
GFTLNSYGIS,VIKSDGRRTFHGDSVK,GRAPGTFDS,no signal,0 of 3
YFTLNSYGIS,VIYSDGRRTFYGDSRK,GRAAGTFDG,no signal,0 of 3
GFFLNSYGIS,VIYSDGRRFFYTDSVK,GRAAGTFDS,1.2 µM,3 of 3
GFTLNSLGIS,VIYSDGRRTVYGDSVK,GRAACTFDS,no signal,0 of 3
GFTKNSYWIS,VIYSDGRRTFYGDSVK,GRAAGTFDS,1.0 µM,1 of 3
GFELNSYGIS,VFYSDGRRTFYGDSVK,GGAAGTFDS,1.5 µM,3 of 3
GKTLNSYGIS,VIYSDCRRTFYGDSVK,GRAAGVFDS,150 µM,1 of 3
GFTLNSYGIS,EIYTDGRRTFDGDSVK,GRAAGTFDS,no signal,0 of 3
GFTLNSYGIN,VIYFDGRRTFYGDSVK,GRAAGTFDT,100 µM,1 of 3
GFTLNSQGIS,VIYSWGRRTFYGMSVK,GRAAGTFDS,no signal,0 of 3
GFTLNSCGLS,VIYSDGRRTFYGGSVK,GRAAGTFDS,910 nM,1 of 3
WFTLNSYGIS,VIYSDGRRTFYGDSYK,GRAAGTLDS,1.0 µM,1 of 3
GFTLNSYGIS,VIYSDGRDTFYGDSWK,GRTAGTFDS,19 µM,1 of 3
GFTLNSTKIS,VIYSDGRRTFYGSSVK,GRAAGTFDS,no signal,0 of 3
GFTLNSYGIS,VIYSVQRRTFYGDFVK,GRAAGTFDS,no signal,0 of 3
GFTLNSYGIS,VIYSDGRRTFTGDSVK,GREAGTFDA,9.1 nM,3 of 3
GFTNNPYGIS,VTYSDGRRTFYGDSVK,GRAAGTFDS,no signal,0 of 3
GFTLNSYPIS,VIYSDGRRTFYGDTVK,GRARGTFDS,190 µM,1 of 3
GFYLNWYGIS,VIFSDGRRTFYGDSVK,GRAAGTFDS,76 nM,1 of 3
GFTLNSYGIN,VIYSDGRRTFYGDSVK,FRAFGTFDS,no signal,0 of 3
PFTLNSDGIS,VIYSDGRRTFYGDSVK,HRAAGTFDS,2.7 µM,2 of 3
GFTLNYYGIS,VIYSRGRRTFYGDSVK,RRAAGTFDS,67 µM,2 of 3
GFTLNSYAIS,VIASDGRRTFYGDSVH,GRAAGTFDS,4.5 µM,1 of 3
EFTRNSYGIS,VIYSDGRRSFYGDSVK,GRAAGTFDS,no signal,0 of 3
GFTLNCYGIW,VIYSDGRRTFYGDSVK,GRAQGTFDS,no signal,0 of 3
GFTINSYGIS,VIYSDGRRTFYWDSVK,GRAAGTFDQ,1.0 µM,1 of 3
GFTLNSYSIS,VIYSDGRRTFIGDSRK,GRAAGTFDS,no signal,0 of 3
GFTLNSYGIS,VIYSDGIRTFYGDSVK,GRAAGTIDC,no signal,0 of 3
GFTLNSYGIS,VIYSDGRRTFFGDSVK,GRAAGTFIS,no signal,0 of 3
GFTLNVYGIS,VIYSRGRRTYYGDSVK,GRAAGTFDS,no signal,0 of 3
GFTLNPYGID,VIYSDGRRTFQGDSVK,GRAAGTFDS,no signal,0 of 3
GFTLNSYGIS,VIYSDIRRTFYGDSVK,WWAAGTFDS,no signal,0 of 3
GFRLHSYGIS,VIYSDGRRTFYGDSVK,NRAAGTFDS,no signal,0 of 3
GFTWNPYGIS,VIYSDGRRTFYGDSVK,GRAAGTPDS,12 µM,2 of 3
GFTVNSFGIS,VICSDGRRTFYGDSVK,GRAAGTFDS,no signal,0 of 3
GFTLNSYGIS,VIYSDGRRTFYGDEVK,GRAMGTFDS,no signal,0 of 3
GLTLNSYGIS,VIYSDGRRTFYGDSVK,GRAAGMFQS,43 nM,3 of 3
GFTANSYEIS,VCYSDGRRTFYGDSVK,GRAAGTFDS,120 µM,1 of 3
GFTLNRYLIS,WIYSDGRRTFYGDSVK,GRAAGTFDS,15 µM,2 of 3
GTTLNSYGGS,VAYSDGRRTFYGDSVK,GRAAGTFDS,32 µM,1 of 3
GFTLNSYGIS,VIYSDGRRTFYGDSVK,GRQAGTDDS,no signal,0 of 3
GFTLNAYGWQ,VIYSDGRRTFYGDSVK,GRAAGTFDS,no signal,0 of 3
CFTLNSYGIS,VIYSDGRRTFYGDDVK,GRAMGTFDS,380 nM,1 of 3
GFTLNSYGIS,VIYSDERRTFYGDKVK,GRAAGLFDS,3.3 µM,2 of 3
GFTLNSYFIS,VIYSDGRRTFYGDSVK,GLAAGTRDS,no signal,0 of 3

Top 8 of the variants detected in all replicates, tightest first:

CDR-H1	CDR-H2	CDR-H3	apparent Kd	seen in
GFTLNSYGIS	VIYSDGRRTFTGDSVK	GREAGTFDA	9.1 nM	3 of 3
GFTLNSYGIS	VIYSDGRRTFYGDRVK	GRAAITEDS	24 nM	3 of 3
GFTMNQYGIS	VIYSDGRRTFYGDSVK	GRAAGTFDS	38 nM	3 of 3
GLTLNSYGIS	VIYSDGRRTFYGDSVK	GRAAGMFQS	43 nM	3 of 3
GFTLYSYGIS	VIYSDGVRTFYGDSVK	GRAAGRFDS	110 nM	3 of 3
GFILNLYGIS	VIYSDGRRTFYGDSVK	GRAAGTFDR	760 nM	3 of 3
GFFLNSYGIS	VIYSDGRRFFYTDSVK	GRAAGTFDS	1.2 µM	3 of 3
GFELNSYGIS	VFYSDGRRTFYGDSVK	GGAAGTFDS	1.5 µM	3 of 3

Data: MIT Lincoln Laboratory AlphaSeq set, Engelhart et al. 2022, doi:10.1038/s41597-022-01779-4, as distributed in FLAb.